Values quoted from earlier work, collected in patent publication US7579013B2, “Formulations for coated microprojections containing non-volatile counterions” (Alza Corporation, priority 2003, dated 2009).

Settings: cited from earlier work

## CCC(=O)N(c1ccccc1)C1CCN(CCc2ccccc2)CC1
  pKa: 8.5

This is a selection: effects in other tests are not listed, and their absence says nothing.
